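Interpolation was linear, between the two tested concentrations surrounding the appropriate level; five concentrations were tested over 48 hours in 96-well plates. GI50 marks 50% less growth. At the TGI there is no net growth.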
Legend:
Assay in all cases: NCI-60 cell line screen, 48 h
NCI-H522 lung = tested on: NCI-H522 lung
CCRF-CEM leukemia = tested on: CCRF-CEM leukemia
SW-620 colon = tested on: SW-620 colon
SF-268 CNS = tested on: SF-268 CNS
IGROV1 ovarian = tested on: IGROV1 ovarian
UO-31 renal = tested on: UO-31 renal
NCI-H23 lung = tested on: NCI-H23 lung
SK-MEL-5 melanoma = tested on: SK-MEL-5 melanoma
TK-10 renal = tested on: TK-10 renal
MCF7 breast = tested on: MCF7 breast
786-0 renal = tested on: 786-0 renal
BT-549 breast = tested on: BT-549 breast
MDA-N = tested on: MDA-N
RPMI-8226 leukemia = tested on: RPMI-8226 leukemia
K-562 leukemia = tested on: K-562 leukemia
SR leukemia = tested on: SR leukemia
KM12 colon = tested on: KM12 colon
A549 NSCLC = tested on: A549 NSCLC
HCC-2998 colon = tested on: HCC-2998 colon
M14 melanoma = tested on: M14 melanoma
MDA-MB-231 breast = tested on: MDA-MB-231 breast
UACC-62 melanoma = tested on: UACC-62 melanoma
LOX IMVI melanoma = tested on: LOX IMVI melanoma
SK-OV-3 ovarian = tested on: SK-OV-3 ovarian
OVCAR-5 ovarian = tested on: OVCAR-5 ovarian
CAKI-1 renal = tested on: CAKI-1 renal
NCI-H322M lung = tested on: NCI-H322M lung
NCI-H226 lung = tested on: NCI-H226 lung
ACHN renal = tested on: ACHN renal
HT29 colon = tested on: HT29 colon
HOP-92 NSCLC = tested on: HOP-92 NSCLC
MOLT-4 leukemia = tested on: MOLT-4 leukemia
SNB-19 CNS = tested on: SNB-19 CNS
NCI/ADR-RES ovarian = tested on: NCI/ADR-RES ovarian
COLO 205 colon = tested on: COLO 205 colon
OVCAR-3 ovarian = tested on: OVCAR-3 ovarian
EKVX NSCLC = tested on: EKVX NSCLC
OVCAR-8 ovarian = tested on: OVCAR-8 ovarian
HS 578T breast = tested on: HS 578T breast
HCT-15 colon = tested on: HCT-15 colon
DU-145 prostate = tested on: DU-145 prostate
SK-MEL-2 melanoma = tested on: SK-MEL-2 melanoma
RXF 393 renal = tested on: RXF 393 renal
MDA-MB-435 = tested on: MDA-MB-435
SF-539 CNS = tested on: SF-539 CNS
HOP-62 NSCLC = tested on: HOP-62 NSCLC
NCI-H460 lung = tested on: NCI-H460 lung
PC-3 prostate = tested on: PC-3 prostate
OVCAR-4 ovarian = tested on: OVCAR-4 ovarian
SK-MEL-28 melanoma = tested on: SK-MEL-28 melanoma
SF-295 CNS = tested on: SF-295 CNS
U251 CNS = tested on: U251 CNS
A498 renal = tested on: A498 renal
SNB-75 CNS = tested on: SNB-75 CNS
HL-60(TB) leukemia = tested on: HL-60(TB) leukemia
SN12C renal = tested on: SN12C renal
UACC-257 melanoma = tested on: UACC-257 melanoma
T-47D breast = tested on: T-47D breast
MALME-3M melanoma = tested on: MALME-3M melanoma
HCT-116 colon = tested on: HCT-116 colon

Work on `CCCCCCCCCCCCCCCC[C@H]1C[N+](C)(C)CCO[P@](C)(=O)O1` yielded a GI50 (NCI-H522 lung) of 3.08 µM, a TGI (NCI-H522 lung) of 12.8 µM and a GI50 (CCRF-CEM leukemia) of 2.35 µM. It also gave a TGI (CCRF-CEM leukemia) of 11 µM, a GI50 (SW-620 colon) of 12.1 µM and a TGI (SW-620 colon) of 28.2 µM. The GI50 (SF-268 CNS) was 4.15 µM, the TGI (SF-268 CNS) was 15.7 µM and the GI50 (IGROV1 ovarian) was 2.02 µM. The TGI (IGROV1 ovarian) was 5.99 µM, the GI50 (UO-31 renal) was 14.5 µM and the TGI (UO-31 renal) was 29.8 µM. The GI50 (NCI-H23 lung) was 7.1 µM, the TGI (NCI-H23 lung) was 22.3 µM and the GI50 (SK-MEL-5 melanoma) was 12.4 µM. It also gave a TGI (SK-MEL-5 melanoma) of 27.7 µM, a GI50 (TK-10 renal) of 2.35 µM and a TGI (TK-10 renal) of 6.63 µM. For the same compound, the GI50 (MCF7 breast) was 12.1 µM, the TGI (MCF7 breast) was 29.7 µM and the GI50 (786-0 renal) was 2.89 µM. For the same compound, the TGI (786-0 renal) was 7.72 µM, the GI50 (BT-549 breast) was 5.56 µM and the TGI (BT-549 breast) was 16.8 µM. For the same compound, the GI50 (MDA-N) was 17.6 µM, the TGI (MDA-N) was 33.8 µM and the GI50 (RPMI-8226 leukemia) was 2.19 µM. It also gave a TGI (RPMI-8226 leukemia) of 7.23 µM, a GI50 (K-562 leukemia) of 9.84 µM and a TGI (K-562 leukemia) of 47.5 µM. For the same compound, the GI50 (SR leukemia) was 3.04 µM, the TGI (SR leukemia) was 13.8 µM and the GI50 (KM12 colon) was 5.34 µM. For the same compound, the TGI (KM12 colon) was 10.9 µM, the GI50 (A549 NSCLC) was 7.13 µM and the TGI (A549 NSCLC) was 23.8 µM. It also gave a GI50 (HCC-2998 colon) of 2.15 µM, a TGI (HCC-2998 colon) of 4.7 µM and a GI50 (M14 melanoma) of 12.9 µM. It also gave a TGI (M14 melanoma) of 26.5 µM, a GI50 (MDA-MB-231 breast) of 2.67 µM and a TGI (MDA-MB-231 breast) of 9.83 µM. The GI50 (UACC-62 melanoma) was 9.4 µM, the TGI (UACC-62 melanoma) was 25.7 µM and the GI50 (LOX IMVI melanoma) was 3.88 µM. For the same compound, the TGI (LOX IMVI melanoma) was 15.8 µM, the GI50 (SK-OV-3 ovarian) was 16.2 µM and the TGI (SK-OV-3 ovarian) was 33.8 µM. It also gave a GI50 (OVCAR-5 ovarian) of 2.57 µM, a TGI (OVCAR-5 ovarian) of 7.58 µM and a GI50 (CAKI-1 renal) of 6.76 µM. It also gave a TGI (CAKI-1 renal) of 23.6 µM, a GI50 (NCI-H322M lung) of 13.9 µM and a TGI (NCI-H322M lung) of 27.3 µM. The GI50 (NCI-H226 lung) was 2.64 µM, the TGI (NCI-H226 lung) was 11.1 µM and the GI50 (ACHN renal) was 11.5 µM. It also gave a TGI (ACHN renal) of 27 µM, a GI50 (HT29 colon) of 2.98 µM and a TGI (HT29 colon) of 11.9 µM. It also gave a GI50 (HOP-92 NSCLC) of 1.92 µM, a TGI (HOP-92 NSCLC) of 6.88 µM and a GI50 (MOLT-4 leukemia) of 3.63 µM. For the same compound, the TGI (MOLT-4 leukemia) was 28.5 µM, the GI50 (SNB-19 CNS) was 3.62 µM and the TGI (SNB-19 CNS) was 13.3 µM. For the same compound, the GI50 (NCI/ADR-RES ovarian) was 25.4 µM, the TGI (NCI/ADR-RES ovarian) was 62.2 µM and the GI50 (COLO 205 colon) was 2.04 µM. The TGI (COLO 205 colon) was 4.46 µM, the GI50 (OVCAR-3 ovarian) was 5.72 µM and the TGI (OVCAR-3 ovarian) was 19.6 µM. For the same compound, the GI50 (EKVX NSCLC) was 18 µM, the TGI (EKVX NSCLC) was 38.1 µM and the GI50 (OVCAR-8 ovarian) was 7.52 µM. The TGI (OVCAR-8 ovarian) was 24.4 µM, the GI50 (HS 578T breast) was 9.57 µM and the TGI (HS 578T breast) was 30.9 µM. It also gave a GI50 (HCT-15 colon) of 14.1 µM, a TGI (HCT-15 colon) of 29.2 µM and a GI50 (DU-145 prostate) of 11.7 µM. It also gave a TGI (DU-145 prostate) of 24.3 µM, a GI50 (SK-MEL-2 melanoma) of 18.3 µM and a TGI (SK-MEL-2 melanoma) of 37.1 µM. For the same compound, the GI50 (RXF 393 renal) was 1.7 µM, the TGI (RXF 393 renal) was 3.68 µM and the GI50 (MDA-MB-435) was 15.2 µM. The TGI (MDA-MB-435) was 29.2 µM, the GI50 (SF-539 CNS) was 6.19 µM and the TGI (SF-539 CNS) was 20.6 µM. For the same compound, the GI50 (HOP-62 NSCLC) was 4.49 µM, the TGI (HOP-62 NSCLC) was 18.2 µM and the GI50 (NCI-H460 lung) was 2.53 µM. For the same compound, the TGI (NCI-H460 lung) was 6.71 µM, the GI50 (PC-3 prostate) was 2.11 µM and the TGI (PC-3 prostate) was 4.99 µM. It also gave a GI50 (OVCAR-4 ovarian) of 8.03 µM, a TGI (OVCAR-4 ovarian) of 25.2 µM and a GI50 (SK-MEL-28 melanoma) of 17.5 µM. For the same compound, the TGI (SK-MEL-28 melanoma) was 33.5 µM, the GI50 (SF-295 CNS) was 4.26 µM and the TGI (SF-295 CNS) was 16.2 µM. For the same compound, the GI50 (U251 CNS) was 1.73 µM, the TGI (U251 CNS) was 3.42 µM and the GI50 (A498 renal) was 6.12 µM. For the same compound, the TGI (A498 renal) was 22.6 µM, the GI50 (SNB-75 CNS) was 2 µM and the TGI (SNB-75 CNS) was 6.46 µM. It also gave a GI50 (HL-60(TB) leukemia) of 1.6 µM, a TGI (HL-60(TB) leukemia) of over 100 µM and a GI50 (SN12C renal) of 6.43 µM. It also gave a TGI (SN12C renal) of 20.2 µM, a GI50 (UACC-257 melanoma) of 19 µM and a TGI (UACC-257 melanoma) of 39.7 µM. The GI50 (T-47D breast) was 20.4 µM, the TGI (T-47D breast) was 43.4 µM and the GI50 (MALME-3M melanoma) was 15.4 µM. It also gave a TGI (MALME-3M melanoma) of 30.1 µM, a GI50 (HCT-116 colon) of 6.96 µM and a TGI (HCT-116 colon) of 22.1 µM.

— PubChem BioAssay (NCI)
